Experimental data from paper PMC3676426 (European journal of clinical pharmacology, 2013).

Assay type: in vivo, human
Conditions: atorvastatin 40 mg for five days, CGC/CGC, CGC/TTT

influence of ABCB1 diplotype on pharmacokinetic parameters: did not differ significantly
Compound: CC(C)c1c(C(=O)Nc2ccccc2)c(-c2ccccc2)c(-c2ccc(F)cc2)n1CC[C@@H](O)C[C@@H](O)CC(=O)O [Atorvastatin, atorvastatin]
